Where a name gives a salt, the structure may show the parent alone.
Key:
[1] = target: PI 3-kinase alpha (Rat-1 pBABEpuro Myr-HA-hp110 alpha cells) (Homo sapiens (Human), UniProt P42336); assay: cell-based
[2] = target: PI 3-kinase beta (Rat-1 pBABEpuro Myr-HA-hp110 beta cells) (Homo sapiens (Human), UniProt P42338); assay: cell-based
[3] = target: PI 3-kinase alpha (Homo sapiens (Human), UniProt P42336); settings: read-out: Assay A PI3Kα IC50
[4] = target: PI 3-kinase beta (Homo sapiens (Human), UniProt P42338); settings: read-out: Assay B PI3Kβ IC50

By UniProt entry, the sequences of proteins in these tests, tags left out. Where a name states a change or a piece, a line headed by the entry shows the natural chain unless it says otherwise.
UniProt P42336, whole entry, looked up: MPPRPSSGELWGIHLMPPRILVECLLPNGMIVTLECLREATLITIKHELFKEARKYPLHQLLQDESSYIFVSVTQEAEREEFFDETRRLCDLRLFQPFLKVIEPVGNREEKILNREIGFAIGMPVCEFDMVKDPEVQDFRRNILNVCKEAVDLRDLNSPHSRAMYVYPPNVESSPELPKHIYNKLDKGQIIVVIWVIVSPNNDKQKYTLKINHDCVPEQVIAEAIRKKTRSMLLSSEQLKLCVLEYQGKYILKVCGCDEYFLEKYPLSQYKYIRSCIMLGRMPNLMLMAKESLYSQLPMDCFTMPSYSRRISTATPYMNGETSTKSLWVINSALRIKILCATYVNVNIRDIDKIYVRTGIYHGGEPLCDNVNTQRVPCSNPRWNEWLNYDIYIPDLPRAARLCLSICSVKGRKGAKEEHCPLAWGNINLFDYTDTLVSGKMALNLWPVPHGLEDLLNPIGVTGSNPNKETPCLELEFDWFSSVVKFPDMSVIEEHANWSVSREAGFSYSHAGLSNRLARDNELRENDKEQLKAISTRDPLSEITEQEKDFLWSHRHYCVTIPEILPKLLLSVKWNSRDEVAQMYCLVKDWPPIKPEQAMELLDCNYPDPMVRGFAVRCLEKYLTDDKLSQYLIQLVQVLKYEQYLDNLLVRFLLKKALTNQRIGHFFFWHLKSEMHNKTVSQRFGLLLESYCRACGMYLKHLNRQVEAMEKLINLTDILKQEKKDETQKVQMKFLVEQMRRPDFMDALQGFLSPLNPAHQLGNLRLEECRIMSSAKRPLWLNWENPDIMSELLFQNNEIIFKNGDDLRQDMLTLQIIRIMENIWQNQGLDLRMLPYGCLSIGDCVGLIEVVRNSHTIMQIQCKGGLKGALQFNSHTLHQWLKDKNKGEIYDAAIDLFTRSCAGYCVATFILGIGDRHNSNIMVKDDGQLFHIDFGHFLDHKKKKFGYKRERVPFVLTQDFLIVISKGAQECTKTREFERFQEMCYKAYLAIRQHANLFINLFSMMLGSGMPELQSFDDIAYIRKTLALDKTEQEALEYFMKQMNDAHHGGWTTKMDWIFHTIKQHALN
UniProt P42338: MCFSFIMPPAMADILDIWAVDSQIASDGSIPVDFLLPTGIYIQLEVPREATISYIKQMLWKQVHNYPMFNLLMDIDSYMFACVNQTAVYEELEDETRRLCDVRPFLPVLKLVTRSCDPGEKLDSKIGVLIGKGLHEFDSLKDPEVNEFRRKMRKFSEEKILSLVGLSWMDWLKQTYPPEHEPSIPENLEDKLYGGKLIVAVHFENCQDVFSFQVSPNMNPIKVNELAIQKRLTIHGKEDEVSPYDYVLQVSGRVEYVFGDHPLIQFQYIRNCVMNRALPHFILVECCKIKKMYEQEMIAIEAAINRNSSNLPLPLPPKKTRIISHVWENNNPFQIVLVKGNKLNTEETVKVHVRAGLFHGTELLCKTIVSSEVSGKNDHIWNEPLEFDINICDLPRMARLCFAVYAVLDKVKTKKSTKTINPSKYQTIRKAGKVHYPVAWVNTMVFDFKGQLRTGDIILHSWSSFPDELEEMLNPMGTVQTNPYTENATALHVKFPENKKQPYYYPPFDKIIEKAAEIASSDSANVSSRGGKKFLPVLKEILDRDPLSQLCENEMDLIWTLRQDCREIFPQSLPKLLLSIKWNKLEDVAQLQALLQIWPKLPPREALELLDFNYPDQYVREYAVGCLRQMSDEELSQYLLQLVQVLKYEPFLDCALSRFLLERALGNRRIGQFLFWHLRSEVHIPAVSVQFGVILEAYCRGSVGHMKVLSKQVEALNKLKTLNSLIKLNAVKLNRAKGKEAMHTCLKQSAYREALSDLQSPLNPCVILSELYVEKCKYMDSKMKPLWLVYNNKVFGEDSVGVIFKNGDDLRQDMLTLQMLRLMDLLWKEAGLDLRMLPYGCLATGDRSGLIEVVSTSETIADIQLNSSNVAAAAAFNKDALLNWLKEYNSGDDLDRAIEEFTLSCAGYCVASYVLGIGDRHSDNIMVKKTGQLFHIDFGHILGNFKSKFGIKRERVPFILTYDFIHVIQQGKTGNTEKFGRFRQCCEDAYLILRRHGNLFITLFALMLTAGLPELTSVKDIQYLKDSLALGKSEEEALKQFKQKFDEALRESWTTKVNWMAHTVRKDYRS

Cc1cc(-c2cc(-c3cc(S(=O)(=O)N4C[C@H](C)[C@@H](O)C4)ccc3C)cnc2N)on1 (relative stereo) [Example 101.3, trans-1-((3-(6-amino-5-(3-methylisoxazol-5-yl)pyridin-3-yl)-4-methylphenyl)sulfonyl)-4-methylpyrrolidin-3-ol]
IC50 [1]: > 10 µM

Cc1ccc(S(=O)(=O)N2CCN(C)CC2)cc1-c1cnc(N)c(C(=O)c2cccnc2)c1 [(ii), reference compound]
IC50 [1]: > 10 µM | IC50 [2]: > 10 µM

Cc1cc(-c2cc(-c3cc(S(=O)(=O)N4CC5(CCOC5)C4)ccc3C)cnc2N)on1 [Example 19.1, 5-(5-(6-oxa-2-azaspiro[3.4]octan-2-ylsulfonyl)-2-methylphenyl)-3-(3-methylisoxazol-5-yl)pyridin-2-amine trifluoroacetic acid salt]
IC50 [3]: 0.55 µM | IC50 [4]: > 10 µM | IC50 [1]: 9.29 µM | IC50 [2]: > 10 µM

Cc1cc(-c2cc(-c3cc(S(=O)(=O)NC4CCOC4=O)ccc3C)cnc2N)on1 (centres unmarked) [Example 19.2, 3-(6-amino-5-(3-methylisoxazol-5-yl)pyridin-3-yl)-4-methyl-N-(2-oxotetrahydrofuran-3-yl)benzene sulfonamide trifluoroacetic acid salt]
IC50 [3]: 0.68 µM | IC50 [4]: 1.9 µM | IC50 [1]: > 10 µM | IC50 [2]: > 10 µM

Cc1cc(-c2cc(-c3cc(S(=O)(=O)N[C@H]4CC[C@H](N)CC4)ccc3C)cnc2N)on1 [Example 19.3, 3-(6-amino-5-(3-methylisoxazol-5-yl)pyridin-3-yl)-N-(trans-4-aminocyclohexyl)-4-methylbenzenesulfon-amide acetic acid salt]
IC50 [3]: 1.3 µM | IC50 [4]: 0.68 µM | IC50 [1]: > 10 µM | IC50 [2]: > 10 µM

Cc1cc(-c2cc(-c3cc(S(=O)(=O)N[C@@H]4CNC[C@H]4O)ccc3C)cnc2N)on1 [Example 19.4, 3-(6-amino-5-(3-methylisoxazol-5-yl)pyridin-3-yl)-N-(trans-4-hydroxypyrrolidin-3-yl)-4-methylbenzenesulfon-amide acetic acid salt]
IC50 [3]: 0.46 µM | IC50 [4]: 1.7 µM | IC50 [1]: > 10 µM | IC50 [2]: > 10 µM

Cc1cc(-c2cc(-c3cc(S(=O)(=O)N4CCOC[C@@H]4C)ccc3C)cnc2N)on1 [Example 19.5, (S)-5-(2-methyl-5-((3-methylmorpholino)sulfon-yl)phenyl)-3-(3-methylisoxazol-5-yl)pyridin-2-amine trifluoroacetic acid salt]
IC50 [3]: 2.1 µM | IC50 [4]: 9.2 µM | IC50 [1]: > 10 µM | IC50 [2]: > 10 µM

Cc1cc(-c2cc(-c3cc(S(=O)(=O)N4CCOC[C@H]4C)ccc3C)cnc2N)on1 [Example 19.6, (R)-5-(2-methyl-5-((3-methylmorpholino)sulfon-yl)phenyl)-3-(3-methylisoxazol-5-yl)pyridin-2-amine trifluoroacetic acid salt]
IC50 [3]: 0.7 µM | IC50 [4]: 4.9 µM | IC50 [1]: > 10 µM | IC50 [2]: > 10 µM

Cc1cc(-c2cc(-c3cc(S(=O)(=O)N4CCCC4(C)C)ccc3C)cnc2N)on1 [Example 19.9, 5-(5-((2,2-dimethylpyrrolidin-1-yl)sulfonyl)-2-methylphenyl)-3-(3-methylisoxazol-5-yl)pyridin-2-amine trifluoroacetic acid salt]
IC50 [3]: 1.6 µM | IC50 [4]: 9.5 µM | IC50 [1]: 5.44 µM | IC50 [2]: > 10 µM

Cc1cc(-c2cc(-c3cc(S(=O)(=O)NCC4(O)CC4)ccc3C)cnc2N)on1 [Example 19.10, 3-(6-amino-5-(3-methylisoxazol-5-yl)pyridin-3-yl)-N-((1-hydroxycyclopropyl)methyl)-4-methylbenzenesulfon-amide trifluoroacetic acid salt]
IC50 [3]: 0.42 µM | IC50 [4]: 3.5 µM | IC50 [1]: 7.3 µM | IC50 [2]: > 10 µM

Cc1cc(-c2cc(-c3cc(S(=O)(=O)NCCC4CCOCC4)ccc3C)cnc2N)on1 [Example 19.12, 3-(6-amino-5-(3-methylisoxazol-5-yl)pyridin-3-yl)-4-methyl-N-(2-(tetrahydro-2H-pyran-4-yl)ethyl)benzenesulfon-amide trifluoroacetic acid salt]
IC50 [3]: 0.24 µM | IC50 [4]: 2.6 µM | IC50 [1]: 1.64 µM | IC50 [2]: > 10 µM

Cc1cc(-c2cc(-c3cc(S(=O)(=O)N[C@@H](C)C4CC4)ccc3C)cnc2N)on1 [Example 19.13, (S)-3-(6-amino-5-(3-methylisoxazol-5-yl)pyridin-3-yl)-N-(1-cyclopropylethyl)-4-methylbenzenesulfon-amide trifluoroacetic acid salt]
IC50 [3]: 0.61 µM | IC50 [4]: 3.1 µM | IC50 [1]: 6.33 µM | IC50 [2]: > 10 µM

Cc1cc(-c2cc(-c3cc(S(=O)(=O)N4CCC[C@H]4CO)ccc3C)cnc2N)on1 [Example 19.15, (S)-(1-((3-(6-amino-5-(3-methylisoxazol-5-yl)pyridin-3-yl)-4-methylphenyl)sulfonyl)pyrrolidin-2-yl)methanol trifluoroacetic acid salt]
IC50 [3]: 0.79 µM | IC50 [4]: > 10 µM | IC50 [1]: > 10 µM | IC50 [2]: > 10 µM

Cc1cc(-c2cc(-c3cc(S(=O)(=O)N[C@H]4CCC[C@H](O)C4)ccc3C)cnc2N)on1 [Example 19.16, 3-(6-amino-5-(3-methylisoxazol-5-yl)pyridin-3-yl)-N-((1S,3S)-3-hydroxycyclohexyl)-4-methylbenzenesulfon-amide trifluoroacetic acid salt]
IC50 [3]: 0.4 µM | IC50 [4]: 0.98 µM | IC50 [1]: 3.72 µM | IC50 [2]: > 10 µM

Cc1cc(-c2cc(-c3cc(S(=O)(=O)N4CCNC(=O)C4)ccc3C)cnc2N)on1 [Example 19.17, 4-((3-(6-amino-5-(3-methylisoxazol-5-yl)pyridin-3-yl)-4-methylphenyl)sulfonyl) piperazin-2-one trifluoroacetic acid salt]
IC50 [3]: 1 µM | IC50 [4]: > 10 µM | IC50 [1]: > 10 µM | IC50 [2]: > 10 µM

COCC1CCN(S(=O)(=O)c2ccc(C)c(-c3cnc(N)c(-c4cc(C)no4)c3)c2)CC1 [Example 19.18, 5-(5-((4-(methoxymethyl)piperidin-1-yl)sulfonyl)-2-methylphenyl)-3-(3-methylisoxazol-5-yl)pyridin-2-amine trifluoroacetic acid salt]
IC50 [3]: 0.76 µM | IC50 [4]: > 10 µM | IC50 [1]: 9.53 µM | IC50 [2]: > 10 µM

Cc1cc(-c2cc(-c3cc(S(=O)(=O)N4CC(N(C)C)C4)ccc3C)cnc2N)on1 [Example 19.19, 5-(5-((3-(dimethylamino)azetidin-1-yl)sulfonyl)-2-methylphenyl)-3-(3-methylisoxazol-5-yl)pyridin-2-amine acetic acid salt]
IC50 [4]: 6.1 µM | IC50 [2]: > 10 µM

COC[C@@H]1COCCN1S(=O)(=O)c1ccc(C)c(-c2cnc(N)c(-c3cc(C)no3)c2)c1 [Example 19.20, (R)-5-(5-((3-(methoxymethyl)morpho-lino)sulfonyl)-2-methylphenyl)-3-(3-methylisoxazol-5-yl)pyridin-2-amine trifluoroacetic acid salt]
IC50 [3]: 2.8 µM | IC50 [4]: > 10 µM | IC50 [1]: > 10 µM | IC50 [2]: > 10 µM

Cc1cc(-c2cc(-c3cc(S(=O)(=O)N4CCCC(C)(O)CC4)ccc3C)cnc2N)on1 (centres unmarked) [Example 19.21, 1-((3-(6-amino-5-(3-methylisoxazol-5-yl)pyridin-3-yl)-4-methylphenyl)sulfonyl)-4-methylazepan-4-ol trifluoroacetic acid salt]
IC50 [3]: 0.66 µM | IC50 [4]: 3.4 µM | IC50 [1]: 2.91 µM | IC50 [2]: > 10 µM

Cc1ccc(S(=O)(=O)NCC(C)(C)O)cc1-c1cnc(N)c(-c2cnn(C)c2C)c1 [Example 61, 3-(6-Amino-5-(1,5-dimethyl-1H-pyrazol-4-yl)pyridin-3-yl)-N-(2-hydroxy-2-methylpropyl)-4-methylbenzenesulfonamide]
IC50 [4]: 1.3 µM | IC50 [2]: > 10 µM

Cc1noc(-c2cc(-c3cc(S(=O)(=O)NC[C@@H]4CCOC4)ccc3C)cnc2N)n1 [Example 87, (S)-3-(6-Amino-5-(3-methyl-1,2,4-oxadiazol-5-yl)pyridin-3-yl)-4-methyl-N-((tetrahydrofuran-3-yl)methyl)benzenesulfonamide]
IC50 [2]: > 10 µM

Cc1noc(-c2cc(-c3cc(S(=O)(=O)NCC(C)(C)O)c(Cl)cc3C)cnc2N)n1 [Example 89, 5-(6-Amino-5-(3-methyl-1,2,4-oxadiazol-5-yl)pyridin-3-yl)-2-chloro-N-(2-hydroxy-2-methylpropyl)-4-methylbenzenesulfonamide]
IC50 [3]: 0.1 µM | IC50 [4]: 0.23 µM | IC50 [1]: 0.73 µM | IC50 [2]: 1.62 µM

Cc1ccc(S(=O)(=O)NCC(C)(C)O)cc1-c1cnc(N)c(-c2ncco2)c1 [Example 94b, 3-(6-amino-5-(oxazol-2-yl)pyridin-3-yl)-N-(2-hydroxy-2-methylpropyl)-4-methylbenzenesulfonamide]
IC50 [3]: 0.75 µM | IC50 [1]: > 10 µM | IC50 [2]: > 10 µM

Cc1ncc(-c2cc(-c3cc(S(=O)(=O)NCC4COC4)ccc3C)cnc2N)o1 [Example 104.3, 3-(6-amino-5-(2-methyloxazol-5-yl)pyridin-3-yl)-4-methyl-N-(oxetan-3-ylmethyl)benzenesulfon-amide]
IC50 [3]: 0.58 µM | IC50 [1]: 5.63 µM

Cc1ncc(-c2cc(-c3cc(S(=O)(=O)NCC4CCCOC4)ccc3C)cnc2N)o1 (centres unmarked) [Example 104.8, 3-(6-amino-5-(2-methyloxazol-5-yl)pyridin-3-yl)-4-methyl-N-((tetrahydro-2H-pyran-3-yl)methyl)benzenesulfon-amide]
IC50 [3]: 0.15 µM | IC50 [1]: 2.55 µM

Cc1ncc(-c2cc(-c3cc(S(=O)(=O)N[C@H]4CC[C@H](CO)CC4)ccc3C)cnc2N)o1 [Example 104.11, 3-(6-amino-5-(2-methyloxazol-5-yl)pyridin-3-yl)-N-((1r,4r)-4-(hydroxymethyl)cyclo-hexyl)-4-methylbenzenesulfon-amide]
IC50 [3]: 0.03 µM | IC50 [1]: 1.59 µM | IC50 [2]: 2.63 µM

Source: patent US10112926B2 (priority 2014, dated 2018)
